# Experimental data reported in publication PMC6137088, “The Role of Outer Membrane Proteins and Lipopolysaccharides for the Sensitivity of Escherichia coli to Antimicrobial Peptides” (Frontiers in Microbiology, 2018).
# Tested on: E. coli ATCC25922
# Type: cell-based, Escherichia coli
# Conditions: Table 4; E. coli ATCC25922 (smooth LPS); triplicates
# Text: The E. coli strains 470, F632, F653 and F2513 were kindly provided by Prof. H. Brade and Prof. S. Muller-Loennies, Research Center Borstel, Leipniz-Center for Medicine and Biosciences, Germany. E. coli BW25113 (CGSC#:7636), a derivative of F^−, λ^− E. coli K12 strain BD792 is the wild-type strain which was used in the generation of the KEIO collection and ordered from the Coli Genetic Stock Centre (CGSC, Yale University). E. coli JW3596, E. coli JW3024, E. coli JW3595, E. coli JW3606, E. coli JW0212, E. coli JW1667, E. coli JW0554, E. coli JW3605 and E. coli JW3600 are isogenic mutants of waaC, waaE, waaF, waaG, gmhA (lpcA), lpp, ompT, waaP, or waaY derived from the parental strain E. coli BW25113 and were ordered from the KEIO collection (Baba et al., [2006]). E. coli ATCC25922 is a clinical isolate, serotype O6, often used as control strain in antimicrobial susceptibility testing was ordered from the ATCC strain collection. […]
# The minimum inhibitory concentrations (MICs) of the AMPs were measured in 96-well microtiter plates according the Clinical and Laboratory Standards Institute [CLSI, formerly National Committee for Clinical Laboratory Standards (NCCLS)] […] After incubation, the minimal inhibitory concentration (MIC) is determined by the lowest concentration showing no visible growth. […]
smiles,measurement,value
CC[C@H](C)[C@H](NC(=O)CN)C(=O)NCC(=O)N[C@@H](C)C(=O)N[C@H](C(=O)N[C@@H](CC(C)C)C(=O)N[C@@H](CCCCN)C(=O)N[C@H](C(=O)N[C@@H](CC(C)C)C(=O)N[C@H](C(=O)N[C@H](C(=O)NCC(=O)N[C@@H](CC(C)C)C(=O)N1CCC[C@H]1C(=O)N[C@@H](C)C(=O)N[C@@H](CC(C)C)C(=O)N[C@H](C(=O)N[C@@H](CO)C(=O)N[C@@H](Cc1c[nH]c2ccccc12)C(=O)N[C@H](C(=O)N[C@@H](CCCCN)C(=O)N[C@@H](CCCNC(=N)N)C(=O)N[C@@H](CCCCN)C(=O)N[C@@H](CCCNC(=N)N)C(=O)N[C@@H](CCC(N)=O)C(=O)N[C@@H](CCC(N)=O)C(N)=O)[C@@H](C)CC)[C@@H](C)CC)[C@@H](C)O)[C@@H](C)O)C(C)C)C(C)C [Melittin],Antimicrobial activity (MIC),16 µg/mL
